Measurements reported in patent US12240855B2, “Pyrrolopyrazole derivative” (DAIICHI SANKYO COMPANY, LIMITED, priority 2019, dated 2025).

Key:
HCT116 cells = assay: cells; details: Homo sapiens, HCT-116, 72 h, read-out: Test Example 3 HCT116 GI50
[1] = tested on: PTDSS2 gene-disrupted (PTDSS2-KO) HCT116 cells; assay: cells; details: Homo sapiens, HCT-116, 72 h, read-out: Test Example 3 PTDSS2-KO HCT116 GI50

Row | Structure (SMILES) | GI50 (HCT116 cells) | GI50 [1]
1 | CC(F)(F)CN1C(=O)c2[nH]nc(-c3cccc4[nH]c(=O)oc34)c2C1c1ccc(Oc2ccc(OC(F)(F)F)c(Cl)c2)c(C(F)(F)F)c1 (single isomer, unassigned) [Example 61, 7-[4-{4-[3-Chloro-4-(trifluoromethoxy)phenoxy]-3-(trifluoromethyl)phenyl}-5-(2,2-difluoropropyl)-6-oxo-1,4,5,6-tetrahydropyrrolo[3,4-c]pyrazol-3-yl]-1,3-benzoxazol-2(3H)-one (enantiomer)] | 7100 nM | 76 nM
2 | Cc1cc(C2c3c(-c4cccc5[nH]c(=O)oc45)n[nH]c3C(=O)N2CC(C)(F)F)c(F)cc1Oc1cc(C(F)(F)F)cc(C(F)(F)F)c1 (single isomer, unassigned) [Example 62, 7-[4-{4-[3,5-Bis(trifluoromethyl)phenoxy]-2-fluoro-5-methylphenyl}-5-(2,2-difluoropropyl)-6-oxo-1,4,5,6-tetrahydropyrrolo[3,4-c]pyrazol-3-yl]-1,3-benzoxazol-2(3H)-one (enantiomer)] | 11000 nM | 14 nM
3 | CC(F)(F)CN1C(=O)c2[nH]nc(-c3cccc4[nH]c(=O)oc34)c2C1c1ccc(Oc2ccc(OC(F)(F)F)cc2)cc1F (single isomer, unassigned) [Example 63, 7-[5-(2,2-Difluoropropyl)-4-{2-fluoro-4-[4-(trifluoromethoxy)phenoxy]phenyl}-6-oxo-1,4,5,6-tetrahydropyrrolo[3,4-c]pyrazol-3-yl]-1,3-benzoxazol-2(3H)-one (enantiomer)] | 7700 nM | 20 nM
4 | Cc1cc(C2c3c(-c4cccc5[nH]c(=O)oc45)n[nH]c3C(=O)N2CC(C)(F)F)c(F)cc1Oc1ccc(OC(F)(F)F)cc1 (single isomer, unassigned) [Example 64, 7-[5-(2,2-Difluoropropyl)-4-{2-fluoro-5-methyl-4-[4-(trifluoromethoxy)phenoxy]phenyl}-6-oxo-1,4,5,6-tetrahydropyrrolo[3,4-c]pyrazol-3-yl]-1,3-benzoxazol-2(3H)-one (enantiomer)] | 8300 nM | 15 nM
5 | CC(F)(F)CN1C(=O)c2[nH]nc(-c3cccc4[nH]c(=O)oc34)c2C1c1ccc(Oc2ccc(OC(F)(F)F)c(Cl)c2)cc1F (single isomer, unassigned) [Example 65, 7-[4-{4-[3-Chloro-4-(trifluoromethoxy)phenoxy]-2-fluorophenyl}-5-(2,2-difluoropropyl)-6-oxo-1,4,5,6-tetrahydropyrrolo[3,4-c]pyrazol-3-yl]-1,-benzoxazol-2(3H)-one (enantiomer)] | 7900 nM | 16 nM
6 | Cc1cc(C2c3c(-c4cccc5[nH]c(=O)oc45)n[nH]c3C(=O)N2CC(C)(F)F)ccc1Oc1ccc(OC(F)(F)F)c(Cl)c1 (single isomer, unassigned) [Example 67, 7-[4-{4-[3-Chloro-4-(trifluoromethoxy)phenoxy]-3-methylphenyl}-5-(2,2-difluoropropyl)-6-oxo-1,4,5,6-tetrahydropyrrolo[3,4-c]pyrazol-3-yl]-1,3-benzoxazol-2(3H)-one (enantiomer)] | 8300 nM | 32 nM
7 | CC(F)(F)CN1C(=O)c2[nH]nc(-c3cccc4[nH]c(=O)oc34)c2C1c1ccc(Oc2ccc(OC(F)(F)F)c(Cl)c2)c(OC(F)(F)F)c1 (single isomer, unassigned) [Example 68, 7-[4-{4-[3-Chloro-4-(trifluoromethoxy)phenoxy]-3-(trifluoromethoxy)phenoxy}-5-(2,2-difluoropropyl)-6-oxo-1,4,5,6-tetrahydropyrrolo[3,4-c]pyrazol-3-yl]-1,3-benzoxazol-2(3H)-one (enantiomer)] | 5100 nM | 70 nM
8 | CC(F)(F)CN1C(=O)c2[nH]nc(-c3cccc4[nH]c(=O)oc34)c2C1c1ccc(Oc2ccc(OC(F)(F)F)cc2)cc1Cl (single isomer, unassigned) [Example 69, 7-[4-{2-Chloro-4-[4-(trifluoromethoxy)phenoxy]phenyl}-5-(2,2-difluoropropyl)-6-oxo-1,4,5,6-tetrahydropyrrolo[3,4-c]pyrazol-3-yl]-1,3-benzoxazol-2(3H)-one (enantiomer)] | 8100 nM | 66 nM
9 | Cc1cc(C2c3c(-c4cccc5[nH]c(=O)oc45)n[nH]c3C(=O)N2CC(C)(F)F)ccc1Oc1ccc(OC(F)(F)F)cc1 (single isomer, unassigned) [Example 70, 7-[5-(2,2-Difluoropropyl)-4-{3-methyl-4-[4-(trifluoromethoxy)phenoxy]phenyl}-6-oxo-1,4,5,6-tetrahydropyrrolo[3,4-c]pyrazol-3-yl]-1,3-benzoxazol-2(3H)-one (enantiomer)] | 7800 nM | 31 nM
10 | CC(F)(F)CN1C(=O)c2[nH]nc(-c3cccc4[nH]c(=O)oc34)c2C1c1ccc(Oc2ccc(OC(F)(F)F)cc2)c(OCCCC(F)(F)F)c1 (single isomer, unassigned) [Example 71, 7-[5-(2,2-Difluoropropyl)-6-oxo-4-{3-(4,4,4-trifluorobutoxy)-4-[4-(trifluoromethoxy)phenoxy]phenyl}-1,4,5,6-tetrahydropyrrolo[3,4-c]pyrazol-3-yl]-1,3-benzoxazol-2(3H)-one (enantiomer)] | 3600 nM | 19 nM
11 | CC(F)(F)CN1C(=O)c2[nH]nc(-c3cccc4[nH]c(=O)oc34)c2C1c1ccc(Oc2ccc(OC(F)(F)F)c(Cl)c2)c(OCCCC(F)(F)F)c1 (single isomer, unassigned) [Example 81, 7-[4-{4-[3-Chloro-4-(trifluoromethoxy)phenoxy]-3-(4,4,4-trifluorobutoxy)phenyl}-5-(2,2-difluoropropyl)-6-oxo-1,4,5,6-tetrahydropyrrolo[3,4-c]pyrazol-3-yl]-1,3-benzoxazol-2(3H)-one (enantiomer)] | 3000 nM | 15 nM
12 | CC(F)(F)CN1C(=O)c2[nH]nc(-c3cccc4[nH]c(=O)oc34)c2C1c1ccc(OCc2cc(C(F)(F)F)cc(C(F)(F)F)c2)cc1 (single isomer, unassigned) [Example 82, 7-[4-(4-{[3,5-Bis(trifluoromethyl)benzyl]oxy}phenyl)-5-(2,2-difluoropropyl)-6-oxo-1,4,5,6-tetrahydropyrrolo[3,4-c]pyrazol-3-yl]-1,3-benzoxazol-2(3H)-one (enantiomer)] | 12000 nM | 22 nM
13 | CC(F)(F)CN1C(=O)c2[nH]nc(-c3cccc4[nH]c(=O)oc34)c2C1c1ccc(Oc2ccc3onc(C(F)(F)F)c3c2)cc1 (single isomer, unassigned) [Example 84, 7-[5-(2,2-Difluoropropyl)-6-oxo-4-(4-{[3-(trifluoromethyl)-1,2-benzoxazol-5-yl]oxy}phenyl)-1,4,5,6-tetrahydropyrrolo[3,4-c]pyrazol-3-yl]-1,3-benzoxazol-2(3H)-one(enantiomer)] | 10000 nM | 35 nM
14 | C[C@@H](Oc1ccc(C2c3c(-c4cccc5[nH]c(=O)oc45)n[nH]c3C(=O)N2CC(C)(F)F)cc1)c1ccccc1 (single isomer, unassigned) [Example 85] | 11000 nM | 50 nM
15 | CC(F)(F)CN1C(=O)c2[nH]nc(-c3cccc4[nH]c(=O)oc34)c2C1c1cccc(Oc2ccc(C(F)(F)F)cc2C(F)(F)F)c1 (single isomer, unassigned) [Example 86, 7-[4-{3-[2,4-Bis(trifluoromethyl)phenoxy]phenyl}-5-(2,2-difluoropropyl)-6-oxo-1,4,5,6-tetrahydropyrrolo[3,4-c]pyrazol-3-yl]-1,3-benzoxazol-2(3H)-one (enantiomer)] | 12000 nM | 55 nM
16 | CC(F)(F)CN1C(=O)c2[nH]nc(-c3cccc4[nH]c(=O)oc34)c2C1c1ccc(Oc2ccc(CC(F)(F)F)cc2)cc1 (single isomer, unassigned) [Example 87, 7-[5-(2,2-Difluoropropyl)-6-oxo-4-{4-[4-(2,2,2-trifluoroethyl)phenoxy]phenyl}-1,4,5,6-tetrahydropyrrolo[3,4-c]pyrazol-3-yl]-1,3-benzoxazol-2(3H)-one (enantiomer)] | 3100 nM | 54 nM
17 | CC(F)(F)CN1C(=O)c2[nH]nc(-c3cccc4[nH]c(=O)oc34)c2C1c1ccc(Oc2ccc(OC(F)(F)F)cc2)cc1 (single isomer, unassigned; (-)) [Example 30, (−)-7-[5-(2,2-difluoropropyl)-6-oxo-4-{4-[4-(trifluoromethoxy)phenoxy]phenyl}-1,4,5,6,-tetrahydropyrrolo[3,4-c]pyrazol-3-yl]-1,3-benzoxazol-2-(3H)-one] | 6300 nM | 41 nM
18 | CC(F)(F)CN1C(=O)c2[nH]nc(-c3cccc4[nH]c(=O)oc34)c2C1c1ccc(Oc2ccc(OC(F)(F)F)c(Cl)c2)cc1 (single isomer, unassigned; (-)) [Example 31, (−)-7-[4-{4-[3-chloro-4-(trifluoromethoxy)phenoxy]phenyl}-5-(2,2-difluoropropyl)-6-oxo-1,4,5,6,-tetrahydropyrrolo[3,4-c]pyrazol-3-yl]-1,3-benzoxazol-2-(3H)-one] | 7900 nM | 17 nM
19 | Cc1cc(Oc2ccc(C3c4c(-c5cccc6[nH]c(=O)oc56)n[nH]c4C(=O)N3CC(C)(F)F)cc2)ccc1OC(F)(F)F (single isomer, unassigned; (-)) [Example 32, (−)-7-[5-(2,2-difluoropropyl)-4-{4-[3-methyl-4-(trifluoromethoxy)phenoxy]phenyl}-6-oxo-1,4,5,6-tetrahydropyrrolo[3,4-c]pyrazol-3-yl]-1,3-benzoxazol-2(3H)-one] | 8300 nM | 19 nM
20 | CC(F)(F)CN1C(=O)c2[nH]nc(-c3cccc4[nH]c(=O)oc34)c2C1c1ccc(Oc2cc(Cl)cc(OC(F)(F)F)c2)cc1 (single isomer, unassigned; (-)) [Example 34, (−)-7-[4-{4-[3-Chloro-5-(trifluoromethoxy)phenoxy]phenyl}-5-(2,2-difluoropropyl)-6-oxo-1,4,5,6-tetrahydropyrrolo[3,4-c]pyrazol-3-yl]-1,3-benzoxazol-2(3H)-one] | 7900 nM | 20 nM
